The experiment is described as follows: Inhibition of Escherichia coli thymidylate synthase.

For orientation: IC50 means the concentration at which inhibition is half-maximal. Lower therefore signals inhibition by little substance. `Nc1nc2[nH]cc(CCc3ccc(C(=O)N[C@@H](CCC(=O)O)C(=O)O)cc3)c2c(=O)[nH]1` [PEMETREXED] gave an IC50 of 15 µM. This lies in the double-digit micromolar range.
